Here are results for 1 molecule from patent US4590207A, “Therapeutic and/or preventive ophthalmic solution for intraocular hypertension and glaucoma” (Eisai Co., Ltd., priority 1984, dated 1986).

The test system of this assay is intraocular tension. Nature of the assay: Lowering of intraocular tension (general statement, no method given). To be noted: oily solvent needed for effective concentration.

Consider `O=[N+]([O-])OC1COC2C(O[N+](=O)[O-])COC12` (stereo not shown), for which the “lowering of intraocular tension” value is “would also lower intraocular tension”.
